# Values of other authors, collected in US4337760A, “Method for the treatment of tumors with β-glucuronidase activity dependent pharmaceuticals” (Schwimmer; Adolf, priority 1979, dated 1982).
# What was measured:
# [1] = cited from earlier work
# trophoblastic cells = conditions: reported; cited from earlier work
# [2] = in vivo; cited from earlier work
compound,measurement,setting,value
Cc1cc([N+](=O)[O-])cc([N+](=O)[O-])c1O,pH-dependent solubility,[1]; alkaline vs acid pH,water soluble at alkaline pH's and lipid-soluble at acid pH's
estrogen,β-glucuronidase activity in trophoblastic cells,trophoblastic cells,induce β-glucuronidase activity
phenylsulfazole,solubility in water,[1]; aglycone of the glucuronide of phenylsulfazole,not soluble in water
phenylsulfazole-β-D-glucuronic acid,migration to the thyroid gland,[2],does not migrate to the thyroid gland
